{"sequences": {"note": "Amino acid sequences for entries named in this document (tags omitted).", "UniProt P21554, whole entry": "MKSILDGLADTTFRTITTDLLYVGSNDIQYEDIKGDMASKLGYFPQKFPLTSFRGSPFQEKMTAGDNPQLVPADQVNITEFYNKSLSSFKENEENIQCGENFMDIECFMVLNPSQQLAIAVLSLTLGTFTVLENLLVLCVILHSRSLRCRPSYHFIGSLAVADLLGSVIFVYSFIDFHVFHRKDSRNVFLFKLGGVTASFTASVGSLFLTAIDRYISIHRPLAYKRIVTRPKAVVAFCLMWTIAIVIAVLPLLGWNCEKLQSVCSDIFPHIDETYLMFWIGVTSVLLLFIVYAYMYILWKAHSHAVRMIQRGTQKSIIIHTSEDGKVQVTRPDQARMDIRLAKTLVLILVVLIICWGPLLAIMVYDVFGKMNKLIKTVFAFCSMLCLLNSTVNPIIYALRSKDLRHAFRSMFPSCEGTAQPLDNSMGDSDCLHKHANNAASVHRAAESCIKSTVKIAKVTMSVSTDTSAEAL"}, "source": "ChEMBL document CHEMBL4834454", "about": "“Rational design of cannabinoid type-1 receptor allosteric modulators: Org27569 and PSNCBAM-1 hybrids” (Bioorg Med Chem, 2021)", "key": {"Cannabinoid receptor 1 [1]": {"target": "T1, Cannabinoid receptor 1 (Homo sapiens, UniProt P21554)", "experiment": "biochemical"}, "Cannabinoid receptor 1 [2]": {"target": "T1, Cannabinoid receptor 1", "experiment": "Allosteric antagonist activity at human CB1 receptor expressed in CHO-RD-HGA16 cells overexpressing Galpha16 assessed as inhibition of CP55940-stimulated calcium mobilization preincubated for 15 mins followed by agonist addition and measured every 1 sec for 90 secs by Calcium-3 dye based FLIPR assay", "type": "functional, cell-based"}, "Cannabinoid receptor 1 [3]": {"target": "T1, Cannabinoid receptor 1", "experiment": "Agonist activity at human CB1 receptor expressed in CHO-RD-HGA16 cells overexpressing Galpha16 assessed as stimulation of calcium mobilization measured every 1 sec for 90 secs by Calcium-3 dye based FLIPR assay relative to Emax of CP55940", "type": "functional, cell-based", "conditions": "time 90.0 sec", "procedure,_shortened": "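Agonist screen. […] They were pretreated with vehicle (BSA/DMSO/EtOH buffer) for 15 min, and a single concentration of test compound was added at 10 s. Fluorescence (485/525 nm) was read for 90 s. RFU is expressed as % of CP55,940 Emax RFU. Line 1 uses hCB1 cells; line 2 uses hCB2 cells.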"}, "Cannabinoid receptor 1 [4]": {"target": "T1, Cannabinoid receptor 1", "conditions": "HEK293, Membrane, filed as allosteric antagonist, time 60.0 min"}}, "data": [{"smiles": "O=C(Nc1ccc(Cl)cc1)Nc1cccc(-c2cccc(N3CCCC3)n2)c1", "values": [{"measurement": "IC50", "setting": "Cannabinoid receptor 1 [1]", "value": 100, "unit": "nM"}, {"measurement": "IC50", "setting": "Cannabinoid receptor 1 [2]", "value": 31.6, "unit": "nM"}]}, {"smiles": "O=C(NCCc1ccccc1)Nc1ccc(Cl)cc1", "values": [{"measurement": "Activity", "setting": "Cannabinoid receptor 1 [3]", "value": "< 30", "unit": "%"}]}, {"smiles": "O=C(NCCc1ccc(N2CCCCC2)cc1)Nc1ccc(Cl)cc1", "values": [{"measurement": "Activity", "setting": "Cannabinoid receptor 1 [3]", "value": "< 30", "unit": "%"}, {"measurement": "pKb", "setting": "Cannabinoid receptor 1 [4]", "value": 4.4}]}]}
